Literature values in article PMC9930120 (Journal of Chemical Information and Modeling, 2023).

By UniProt entry, the sequences of proteins in these tests, tags left out.
UniProt P34972, whole entry: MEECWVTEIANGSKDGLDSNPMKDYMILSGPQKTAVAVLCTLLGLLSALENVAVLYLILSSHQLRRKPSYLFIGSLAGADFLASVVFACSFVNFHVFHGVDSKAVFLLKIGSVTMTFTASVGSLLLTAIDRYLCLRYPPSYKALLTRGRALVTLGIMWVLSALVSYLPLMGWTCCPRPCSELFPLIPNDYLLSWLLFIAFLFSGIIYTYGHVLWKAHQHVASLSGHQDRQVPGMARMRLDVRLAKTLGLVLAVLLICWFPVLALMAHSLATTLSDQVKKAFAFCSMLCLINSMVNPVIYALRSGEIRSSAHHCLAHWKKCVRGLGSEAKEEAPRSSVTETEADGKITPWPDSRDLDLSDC

Target: human CB2 (Homo sapiens, UniProt P34972)
Details: cited from earlier work

In the case of `Cc1c(C(=O)NN2CCOCC2)nn(-c2ccc(Cl)cc2Cl)c1-c1ccc(I)cc1` [AM-281], the Ki is listed as 4.87 µM.
